Sampled rows, rich in hits. Any-hit rate of the full collection: about 16%.
TDP1 inh – inhibitors of human tyrosyl-DNA phosphodiesterase TDP1; Q9NUW8; recombinant TDP1, AlphaScreen DNA substrate cleavage; Potency, µM (top dose mostly 130 µM), inactives show at the highest dose activity change, negative = inhibition, usual class: inhibitors; 350,000 compounds, 0.28% hits; AID 485290; also: potency is read from the fitted curve at half-maximal effect; % is scaled to controls: 0 for no effect and ±100 for the full control effect; nearly all actives have a fitted effect of over 40% in size
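E. coli-derived human Tdp1, 1 nM final. Cpd preinc 15 min RT; substrate 15 nM final, 5 min RT; AS bead mix 10 ug/ml final, 10 min RT. Signal loss = tyrosine-FITC cleavage. No-enzyme wells = max signal.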
miR-21 reporter – miR-21 reporter, rising signal; HeLa miR-21 FLuc reporter, luciferase, 48 h; Potency, µM (doses to about 38.3 µM), for inactives: at the highest dose reporter change, positive = more light; 340,000 tested, under 10 active; AID 2288; active = well fitted rising curve with a large enough effect; inconclusive = small, poorly fitted or top-dose-only effect; inactive = no such curve, though single readings can be large or run the other way;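 further: % of control where 0% means no effect; miR-21 action dims this reporter so a rising signal means less miR-21 action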
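Luminescence from a firefly luciferase reporter carrying a miR-21 binding site downstream, stably expressed under a CMV promoter in HeLa cells that make miR-21 endogenously, reports miRNA modulation after 48 h compound exposure up to approximately 40uM final.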
uPA generation – inhibitors of cell surface uPA generation; cell surface uPA generation assay, qHTS; Potency, µM (doses to about 38.3 µM), for inactives: at the highest dose activity change, negative = inhibition, usual class: inhibitors; 330,000 compounds, 0.31% hits; AID 540303; active = well fitted inhibition curve with a large enough effect; inconclusive = small, poorly fitted or top-dose-only effect; inactive = no such curve, though single readings can be large or run the other way; tested in mouse RAW 264.7 cells; also: potency is read from the fitted curve at half-maximal effect; % is scaled to controls: 0 for no effect and ±100 for the full control effect; nearly all actives have a fitted effect of over 55% in size
DT40 TDP1 no CPT – qHTS for Inhibitors of human tyrosyl-DNA phosphodiesterase 1 (TDP1): qHTS in cells in absence of CPT; Potency, µM (top dose mostly 46.2 µM), without a hit: top-dose activity change, negative = growth inhibition, hits mostly inhibitors; DT40 Tdp1-/- hTDP1 cells, no CPT, ATP luminescence, 48 h; AID 686978, 2013; 420,000 compounds, 15% hits; also: potency is read from the fitted curve at half-maximal effect; % is scaled to controls: 0 for no effect and ±100 for the full control effect; nearly all actives have a fitted effect of over 55% in size
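Readout: luminescence from CellTiter-Glo after 30 min in the dark at RT. Cells: DT40 Tdp1-/- with stable hTDP1, 400/well. Exposure: compounds alone, ≥48 hr, 37 °C.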
TDP1 cell CPT – growth inhibition of DT40 Tdp1-/-;hTDP1 cells with camptothecin (screen for TDP1 inhibitors); Potency, µM (series often up to 46.2 µM), inactives show top-dose activity change, negative = growth inhibition, most hits filed as inhibitors; chicken DT40 Tdp1-/-;hTDP1 cells + 20 nM CPT, ATP luminescence, 48 h; 420,000 compounds, 12% hits; also: potency is read from the fitted curve at half-maximal effect; % is scaled to controls: 0 for no effect and ±100 for the full control effect; nearly all actives have a fitted effect of over 55% in size
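Chicken DT40 Tdp1-/- cells stably complemented with human TDP1 were seeded at 400 cells/well in medium containing 20 nM camptothecin, exposed to pin-transferred compounds, and grown at 37 °C for at least 48 hr. Viability was read as ATP luminescence.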
* marks the source's active call; other numbers are inactive results; [ ] = another dose, or the depositor's remark. Unless noted, calls follow the shape of the dose curve; as a rule, active = well fitted curve in the direction sought with a large enough effect; inconclusive = small, poorly fitted or top-dose-only effect, or another doubt; inactive = no such curve, though single readings can be large; an effect the other way counts as inactive or inconclusive.

`COC(=O)C[C@H]1C[C@H]2c3cc(NC(=O)C4CCOCC4)ccc3O[C@H]2[C@@H](CO)O1` gave DT40 TDP1 no CPT 2% and TDP1 cell CPT -2%.
Screening CCC(c1nc2ccccc2[nH]1)n1c(=O)c(-c2ccco2)nc2ccccc21 (stereo not given) returned DT40 TDP1 no CPT 18µM* and TDP1 cell CPT 21µM*.
CC(C)(C)NC(=O)C(c1ccncc1)n1c(=O)c(-c2ccco2)nc2ccccc21 (stereo not given) was read as DT40 TDP1 no CPT -7% and TDP1 cell CPT 6%.
`CC(C)(C)C(c1nc2ccccc2[nH]1)n1c(-c2ccco2)nc2ccccc21` (stereo not given) gave DT40 TDP1 no CPT 20% and TDP1 cell CPT 15%.
O=c1c(-c2ccco2)nc2ccccc2n1C(c1ccccc1)c1nc2ccccc2[nH]1 (stereo not given) was read as DT40 TDP1 no CPT 23µM* and TDP1 cell CPT 16µM*.
Screening CCCOc1ccc(C(F)(F)F)cc1NC(=O)c1cc(C)on1 returned TDP1 inh 0%, uPA generation 21%, DT40 TDP1 no CPT 7% and TDP1 cell CPT -6%.
CCCOc1ccc(C(F)(F)F)cc1NS(=O)(=O)c1ccc(Cl)nc1 was read as TDP1 inh -3%, uPA generation 1%, DT40 TDP1 no CPT inconclusive and TDP1 cell CPT 15µM*.
For CCCC[P+](CCCC)(CCCC)Cc1ccc(NC(=O)[C@@H](Cc2ccc3ccccc3c2)NC(=NC2CCCCC2)NC2CCCCC2)cc1 the results were TDP1 inh 14%, DT40 TDP1 no CPT 17µM* and TDP1 cell CPT 13µM*.
`CN(C(=O)c1ccccc1Cl)C1CCCCC1` gave TDP1 inh 0%, miR-21 reporter -14%, DT40 TDP1 no CPT -18% and TDP1 cell CPT -7%.
Screening CC(=O)Oc1ccccc1C(=O)N(C1CCCCC1)C1CCCCC1 returned miR-21 reporter 27%, uPA generation -8%, DT40 TDP1 no CPT 13µM* and TDP1 cell CPT 23µM*.
CC(=O)Oc1ccc(Cl)cc1CN(C(C)=O)C1CCCCC1 was read as uPA generation 3%, DT40 TDP1 no CPT inconclusive and TDP1 cell CPT 23µM*.
For COc1cc(NC(=S)N2CCC(C(N)=O)CC2)cc(OC)c1 the results were TDP1 inh 8%, miR-21 reporter 0%, uPA generation 1%, DT40 TDP1 no CPT 6% and TDP1 cell CPT -3%.

As a working copy, part of the list above.
`COC(=O)C[C@H]1C[C@H]2c3cc(NC(=O)C4CCOCC4)ccc3O[C@H]2[C@@H](CO)O1` gave DT40 TDP1 no CPT 2% and TDP1 cell CPT -2%.
Screening CCC(c1nc2ccccc2[nH]1)n1c(=O)c(-c2ccco2)nc2ccccc21 (stereo not given) returned DT40 TDP1 no CPT 18µM* and TDP1 cell CPT 21µM*.
CC(C)(C)NC(=O)C(c1ccncc1)n1c(=O)c(-c2ccco2)nc2ccccc21 (stereo not given) was read as DT40 TDP1 no CPT -7% and TDP1 cell CPT 6%.
`CC(C)(C)C(c1nc2ccccc2[nH]1)n1c(-c2ccco2)nc2ccccc21` (stereo not given) gave DT40 TDP1 no CPT 20% and TDP1 cell CPT 15%.

Next section.
For Cc1cccc(O)c1 the results were TDP1 inh 9%.
Screening C#C[C@]1(O)CC[C@H]2[C@@H]3CCc4cc(O)ccc4[C@H]3CC[C@@]21C returned TDP1 inh -6%, miR-21 reporter 13%, uPA generation inconclusive, DT40 TDP1 no CPT 15µM* and TDP1 cell CPT inconclusive.
`C[C@]12CC[C@@H]3c4ccc(O)cc4CC[C@H]3[C@@H]1CC[C@@H]2O` gave TDP1 inh 3%, miR-21 reporter 14%, uPA generation -24%, DT40 TDP1 no CPT 23µM* and TDP1 cell CPT inconclusive.
Screening C[C@@]12CC[C@@H]3c4ccc(O)cc4CC[C@H]3[C@H]1CC[C@H]2O returned TDP1 inh 10%[21 µM].
Screening CC(NCCN(C)C)C1CCC2C3CCc4cc(O)ccc4C3CCC12C (stereo not given) returned uPA generation -12%, DT40 TDP1 no CPT 1.6µM* and TDP1 cell CPT inconclusive.
Screening C#C[C@@]1(O)CCC2C3CCc4cc(O)ccc4C3CC[C@@]21C (stereo not given in full) returned TDP1 inh 12%[56.1 µM], DT40 TDP1 no CPT inconclusive and TDP1 cell CPT inconclusive.
For Cc1ccccc1C(=O)N1CCC(C(=O)NN2C(=O)NC3(CCCCC3)C2=O)CC1 the results were TDP1 inh 0%, uPA generation 8%, DT40 TDP1 no CPT 18% and TDP1 cell CPT 2%.
`COc1cccc(-c2cnc3c(NC=O)cc(-c4ccc(OC)cc4OC)cn23)c1` gave DT40 TDP1 no CPT 0.021µM* and TDP1 cell CPT 0.015µM*.
COc1ccc(-c2cc(NC=O)c3ncc(-c4ccc(OC)c(OC)c4)n3c2)c(OC)c1 was read as DT40 TDP1 no CPT 0.033µM* and TDP1 cell CPT 0.041µM*.
Screening COc1ccc(C(=O)NNC(=O)C(=O)NCc2ccccc2)cc1 returned TDP1 inh 1%, miR-21 reporter 0%, uPA generation -1%, DT40 TDP1 no CPT inconclusive and TDP1 cell CPT -26%.
For CC(=O)C[C@@H]1OC2CCCCC2N1S(=O)(=O)c1ccc(C)cc1 (stereo not given in full) the results were DT40 TDP1 no CPT -7% and TDP1 cell CPT 3%.
For Cc1ccc(S(=O)(=O)N2[C@H](CC(=O)Oc3ccccc3)OC[C@@H]2C(C)C)cc1 the results were DT40 TDP1 no CPT 13µM* and TDP1 cell CPT 13µM*.
`Cc1ccc(S(=O)(=O)C[C@@H]2OC[C@H](C(C)C)N2S(=O)(=O)c2ccc(C)cc2)cc1` gave DT40 TDP1 no CPT 16µM* and TDP1 cell CPT 18µM*.
`CC(=O)C[C@H]1SC[C@@H](C(C)C)N1S(=O)(=O)c1ccc(C)cc1` gave DT40 TDP1 no CPT 13µM* and TDP1 cell CPT 9.2µM*.
`Cc1ccc(S(=O)(=O)N2[C@@H](CCO)OC[C@H]2C(C)C)cc1` gave DT40 TDP1 no CPT inconclusive and TDP1 cell CPT -3%.
Screening Cc1cnc(CNC(=O)C2(C)CCCN2CC(C)C)cn1 (stereo not given) returned DT40 TDP1 no CPT -8% and TDP1 cell CPT -18%.
Cc1ccc2c(c1)CO[C@]21O[C@H](CCO)C[C@H](O)[C@H]1O was read as DT40 TDP1 no CPT 2% and TDP1 cell CPT -1%.
CC(=O)N1N=C2c3ccccc3CCC2C1c1ccc(F)cc1 (stereo not given) was read as TDP1 inh 0%, miR-21 reporter 15%, uPA generation -4%, DT40 TDP1 no CPT inconclusive and TDP1 cell CPT -27%.
CCNC(=S)N1N=C2c3ccccc3CCC2C1c1ccc(F)cc1 (stereo not given) was read as TDP1 inh 7%, miR-21 reporter 14%, uPA generation -10%, DT40 TDP1 no CPT 23µM* and TDP1 cell CPT inconclusive.
Screening COc1ccc2c(c1)OCC(Cc1ccc(OC)c(OC(C)=O)c1)C2=O (stereo not given) returned TDP1 inh -5%[56.1 µM], DT40 TDP1 no CPT 0.65µM* and TDP1 cell CPT 0.65µM*.
Screening COc1ccc2c(c1)OCC(Cc1ccc(OC)c(OC)c1)C2=O (stereo not given) returned TDP1 inh -4%[56.1 µM], DT40 TDP1 no CPT 13µM* and TDP1 cell CPT inconclusive.

Source: PubChem BioAssay (National Center for Advancing Translational Sciences (NCATS))
